The text below walks through data of PubChem BioAssay AID751 (NMMLSC, 2007).

SMILES strings stand for the structures. This is a selection; strong and weak results do not stand in their true shares. Some results for these compounds are left out of this collection, so the calls shown say nothing about other tests. The source made the active and inactive calls.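 Rule for the calls: active = inhibition of disassembly above about 33% (limit read from the data); inconclusive = likely self-fluorescent, control bead median signal at least 40; inactive = the rest.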

For the experiment, the system named is 26S proteasome (yeast, GFP-tagged, ATP-dependent disassembly). Put plainly: blockers of yeast 26S proteasome breakdown – biochemical, bead-based flow cytometry, GFP-tagged proteasome, primary screen (AID 751).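 Note: plate controls were ATP control with full disassembly for no effect and ATP-gamma-S intact proteasomes for full effect; higher percent means more bead fluorescence retained so stronger block of disassembly.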 To be noted: anti-FLAG beads, stronger effect = higher value, concentration not given here.
On to `O=C(OC1CN2CCC1CC2)C(CO)(c1ccccc1)c1ccccc1` (stereo unspecified), for which the inhibition of disassembly is inactive: -1.53%.
